How the values were obtained:
[1] = system: IL-23 stimulated Kit225 T cells with a stably-integrated STAT-dependent luciferase reporter; test: Kit225 T cell assay, IL-23 stimulated STAT-dependent luciferase reporter; assay type: cell-based; conditions: read-out: IL-23 Kit225 Reporter, (IC50), 20 ng/mL human recombinant IL-23, 5-6 hours
[2] = target: recombinantly expressed His-tagged protein corresponding to amino acids 575-869 of human Tyk2 (Homo sapiens, UniProt P29597); test: Probe displacement assay (scintillation proximity, tritiated probe); assay type: binding; conditions: read-out: Probe Displacement (EC50); His-tagged Tyk2 (575-869) 2.5 nM, 40 nM radiolabeled probe, 30 minutes at room temperature
[3] = system: IFNα stimulated Kit225 T cells with a stably-integrated STAT-dependent luciferase reporter; test: Kit225 T cell assay, IFNα stimulated STAT-dependent luciferase reporter; assay type: cell-based; conditions: read-out: IFNa Kit225 Reporter, (IC50), 200 U/mL human recombinant IFNα, 5-6 hours

By UniProt entry, the sequences of proteins in these tests, tags left out. Chains listed by the source or under a name are the forms on record and can include a tag or linker. Residues count along the entry.
UniProt P29597, 575-869 with tags or gaps: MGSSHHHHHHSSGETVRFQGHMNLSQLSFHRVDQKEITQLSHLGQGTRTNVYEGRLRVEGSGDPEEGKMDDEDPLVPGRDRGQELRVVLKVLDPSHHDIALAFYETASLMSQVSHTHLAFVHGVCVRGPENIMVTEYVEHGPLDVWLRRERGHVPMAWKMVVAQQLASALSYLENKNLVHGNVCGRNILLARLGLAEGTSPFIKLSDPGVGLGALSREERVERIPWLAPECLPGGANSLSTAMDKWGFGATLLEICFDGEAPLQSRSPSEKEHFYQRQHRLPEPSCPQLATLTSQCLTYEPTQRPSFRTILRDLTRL

IC50 [1] [nM]	EC50 [2] [nM]	IC50 [3] [nM]	SMILES
440	80	1260	CNc1cc(Nc2cccnc2C(=O)NC2CCS(=O)(=O)C2)nn2c(C(=O)NC3CC3)cnc12 (stereo not drawn)
8690	200	8810	CNc1cc(Nc2cccc(-n3nccc3O)n2)nn2c(C(=O)NC3CC3)cnc12
470	9.39	1420	CNc1cc(Nc2cccnc2C(=O)NCCF)nn2c(C(=O)NC3CC3)cnc12
